Only a part is listed here, and it is no random draw. Calls of active or inactive are those of the source.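 Rule for the calls: active = corrected activity change at or below -50% at 5 µM; inactive = the rest.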
Assay: cytotoxicity in KKLEB CF airway cells, primary screen, cytotoxicity control for CF NF-kB inhibitor project, cell-based, uHTS, fluorescence assay plates (AID 602141)
Conditions: KKLEB CF airway cells viability, ATPlite luminescence, overnight; at 5 µM; active compounds read low; cells stimulated with P. aeruginosa culture filtrate

SMILES | activity change (cytotoxicity)
Cc1cc(SC(NC(=O)c2ccc(F)cc2)C(Cl)(Cl)Cl)ncn1 (stereo unspecified) | inactive: -4.6%
